Measured values taken from ChEMBL document CHEMBL1129281, “Effect of linking bridge modifications on the antipsychotic profile of some phthalimide and isoindolinone derivatives” (J Med Chem, 1996).

Chains of the proteins cited; added tags and fusions are not shown.
UniProt P19327, whole entry: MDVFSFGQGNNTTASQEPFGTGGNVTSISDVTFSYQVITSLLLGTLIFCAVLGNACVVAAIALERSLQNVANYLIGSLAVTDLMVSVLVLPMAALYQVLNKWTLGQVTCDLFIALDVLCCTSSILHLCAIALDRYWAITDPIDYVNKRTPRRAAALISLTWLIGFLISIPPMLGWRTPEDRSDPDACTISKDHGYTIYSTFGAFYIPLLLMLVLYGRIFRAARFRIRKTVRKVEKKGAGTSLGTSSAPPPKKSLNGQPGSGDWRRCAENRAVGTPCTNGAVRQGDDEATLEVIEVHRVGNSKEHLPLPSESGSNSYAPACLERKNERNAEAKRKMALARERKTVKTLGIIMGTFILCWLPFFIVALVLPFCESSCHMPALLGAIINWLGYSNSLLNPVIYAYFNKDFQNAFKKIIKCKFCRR

Biological target: 5-hydroxytryptamine receptor 1A (Rattus norvegicus, UniProt P19327)
Experiment: Inhibition of [3H]8-OH-DPAT binding at serotonin 5-hydroxytryptamine 1A receptor from rat hippocampus tissue.
Assay type: tissue-based

`O=C1c2ccccc2CN1C/C=C/CN1CCN(c2nsc3ccccc23)CC1` was tested, and the IC50 was 23 nM.
